Where two headings read alike, the source gives them in different places.

Protein sequences, listed by entry. Tags and fused reporters are not part of them. Lines headed by an entry give the natural chain unless they say otherwise; changes in a name come on top. Residues count along the entry.
UniProt P79483, 30-266: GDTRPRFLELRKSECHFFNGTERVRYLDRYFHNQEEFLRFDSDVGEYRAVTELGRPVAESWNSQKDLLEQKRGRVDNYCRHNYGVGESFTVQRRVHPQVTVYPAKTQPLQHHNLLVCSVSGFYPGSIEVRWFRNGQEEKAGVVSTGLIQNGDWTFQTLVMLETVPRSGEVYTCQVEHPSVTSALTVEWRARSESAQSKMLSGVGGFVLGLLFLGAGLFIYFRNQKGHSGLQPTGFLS
UniProt Q30154, 30-266: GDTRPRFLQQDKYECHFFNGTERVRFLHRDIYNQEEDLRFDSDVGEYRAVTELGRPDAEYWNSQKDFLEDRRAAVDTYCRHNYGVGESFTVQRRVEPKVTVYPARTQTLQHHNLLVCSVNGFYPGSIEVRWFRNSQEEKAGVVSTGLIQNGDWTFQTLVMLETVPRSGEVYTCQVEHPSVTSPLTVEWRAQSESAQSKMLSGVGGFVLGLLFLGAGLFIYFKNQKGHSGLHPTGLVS

Among the targets are DRB1*0101 (Homo sapiens, UniProt P01903+P01911, A100R/D57E/F55L/F60I/F76Y/I96L/L162R/M171V/P40L/Q125E/R42F/V115G/Y59C); DRB1*0301 (Homo sapiens, UniProt P01903+P01911, A100K/A102G/A103R/A169T/F55Y/I96L/K41T/L162R/M171V/P40S/Q125H/Q178H/Q39Y/R42S/S66N/T106N/T262R/W38E/Y61H); DRB1*0401 (Homo sapiens, UniProt P01903+P01911, A100K/A169T/F76Y/I96L/K127E/L162R/M171V/N62H/P40V/Q125Y/R42H/S133A/S149N/S66Y/V115G/V209L/W38E); DRB1*0404 (Homo sapiens, UniProt P01903+P01911, A100R/A169T/F76Y/I96L/K127E/L162R/M171V/N62H/P40V/Q125Y/R42H/S133A/S149N/S66Y/V209L/W38E); DRB1*0405 (Homo sapiens, UniProt P01903+P01911, A100R/A169T/D86S/F76Y/I96L/K127E/L162R/M171V/N62H/P40V/Q125Y/R42H/S133A/S149N/S66Y/V115G/V209L/W38E); DRB1*0701 (Homo sapiens, UniProt P01903+P01911, A100R/A102G/A103Q/D57E/D86V/E43K/F76Y/K127E/L162R/M171V/P40G/Q125H/Q99D/R33Q/R42Y/R54Q/S133A/S66F/T210M/V115G/Y107V/Y59L/Y89S); DRB1*0802 (Homo sapiens, UniProt P01903+P01911, A100R/A103L/A169T/F76Y/H45Y/I96F/K41T/L162R/M171V/P40S/Q125H/Q178H/Q39Y/Q99D/R218S/R42G/S66Y/V115G/W38E); DRB1*0901 (Homo sapiens, UniProt P01903+P01911, A100R/A103E/D57H/D86V/F55Y/F60I/F76Y/I96F/K127E/L162R/M171V/P40D/Q125H/Q99R/R33Q/R42F/S133A/S66N/T210M/V115G/W38K/Y107V/Y59G/Y89S); DRB1*1101 (Homo sapiens, UniProt P01903+P01911, A100R/A169T/A87E/I96F/K41T/L162R/M171V/P40S/Q125H/Q178H/Q39Y/Q99D/R42S/S66Y/T262R/V115G/W38E); DRB1*1302 (Homo sapiens, UniProt P01903+P01911, A100E/A169T/K41T/L162R/M171V/P40S/Q125H/Q178H/Q39Y/Q99D/R42S/S66N/T262R/V115G/W38E/Y61H); DRB1*1501 (Homo sapiens, UniProt P01903+P01911); DRB3*0101 (Homo sapiens, UniProt P01903+P79483); DRB4*0101 (Homo sapiens, UniProt P01903+P13762, G164S).

Assay in all cases: biochemical
Common to all, as to format: binding

For the next experiment, the target named is DRB5*0101 (Homo sapiens, UniProt P01903+Q30154). The conditions noted are these: read-out: Binding Affinity (nM) DRB5*0101.
Where [1] appears, read: read-out: Binding Affinity (nM) DRB1*0701.
Where [2] appears, read: competitive inhibition of radiolabeled standard peptide, '-' distinct from ND, read-out: Binding Affinity (nM) DRB1*0901.
Setting [3] is: competitive inhibition of radiolabeled standard peptide, '-' distinct from ND, read-out: Binding Affinity (nM) DRB1*1302.
The mark [4] stands for this setting: read-out: Binding Affinity (nM) DRB3*0101.
Where [5] appears, read: read-out: Binding Affinity (nM) DRB1*1101.
[6] abbreviates: read-out: Binding Affinity (nM) DRB1*0401.

Consider `CC[C@H](C)[C@H](NC(=O)[C@H](CCC(=O)O)NC(=O)[C@H](C)NC(=O)[C@@H](NC(=O)[C@@H](NC(=O)CNC(=O)[C@@H](N)CCC(N)=O)C(C)C)[C@@H](C)O)C(=O)N[C@H](C(=O)N1CCC[C@H]1C(=O)N[C@@H](CCC(N)=O)C(=O)N[C@@H](C)C(=O)N[C@@H](CO)C(=O)N[C@H](C(=O)N[C@H](C(=O)N[C@@H](CCC(=O)O)C(=O)O)[C@@H](C)O)[C@@H](C)O)[C@@H](C)O` [Envelope 156-170], for which the IC50 against DRB1*0101 is 0.463 µM; against DRB1*0301, 2540 nM; against DRB1*0401, 7.7 nM; at DRB1*0404 it was 0.444 µM; at DRB1*0405, 0.045 µM; on DRB1*0701 (setting [1]), greater than 20000 nM. Moreover, the IC50 at DRB1*0802 is 0.033 µM; at DRB1*0901 (setting [2]), 15200 nM; at DRB1*1101, 16200 nM; on DRB1*1302 (setting [3]), 6950 nM; on DRB1*1501 it was 7490 nM; at DRB3*0101 (setting [4]) it was greater than 20000 nM. In addition, the IC50 at DRB5*0101 was greater than 20000 nM.
Take `CC[C@H](C)[C@H](NC(=O)[C@H](C)NC(=O)[C@H](CCC(=O)O)NC(=O)[C@@H](NC(=O)[C@@H](NC(=O)[C@H](CO)NC(=O)[C@H](C)NC(=O)[C@H](CCC(N)=O)NC(=O)[C@@H]1CCCN1C(=O)[C@@H](NC(=O)[C@@H](NC(=O)[C@@H](N)CCC(=O)O)[C@@H](C)CC)[C@@H](C)O)[C@@H](C)O)[C@@H](C)O)C(=O)N[C@@H](CC(C)C)C(=O)N1CCC[C@H]1C(=O)N[C@@H](CCC(=O)O)C(=O)O` [Envelope 161-175]: the IC50 at DRB1*0101 turned out to be 3.44 µM; against DRB1*0301, 2840 nM; against DRB1*0401 it was 115 nM; at DRB1*0404, 1.25 µM; against DRB1*0405, 0.691 µM; against DRB1*0701, 509 nM. The IC50 is 0.063 µM at DRB1*0802; 4260 nM at DRB1*0901 (setting [2]); greater than 20000 nM on DRB1*1101 (setting [5]); 68 nM on DRB1*1302 (setting [3]); greater than 20000 nM on DRB1*1501 (read-out: Binding Affinity (nM) DRB1*1501); greater than 20000 nM at DRB3*0101 (setting [4]). The IC50 at DRB5*0101 is greater than 20000 nM.
As to `CC(C)C[C@H](NC(=O)[C@H](CC(=O)O)NC(=O)[C@H](Cc1ccccc1)NC(=O)[C@@H](N)Cc1ccccc1)C(=O)N1CCC[C@H]1C(=O)N[C@@H](CC(C)C)C(=O)N1CCC[C@H]1C(=O)N[C@@H](Cc1c[nH]c2ccccc12)C(=O)N[C@H](C(=O)N[C@@H](CO)C(=O)NCC(=O)N[C@@H](C)C(=O)N[C@H](C(=O)N[C@H](C(=O)N[C@@H](CCC(=O)O)C(=O)O)[C@@H](C)O)[C@@H](C)O)[C@@H](C)O` [Envelope 211-225], the IC50 at DRB1*0101 is 1.22 µM; against DRB1*0301, 6670 nM; against DRB1*0401, 2160 nM; at DRB1*0405, 3.58 µM; on DRB1*0701 (setting [1]), greater than 20000 nM; on DRB1*0802, 1.8 µM. Moreover, the IC50 on DRB1*0901 is 3570 nM; on DRB1*1101 (setting [5]), greater than 20000 nM; against DRB1*1302 it was 8960 nM; at DRB1*1501, 6170 nM; on DRB3*0101 (setting [4]), greater than 20000 nM; on DRB4*0101 (read-out: Binding Affinity (nM) DRB4*0101), greater than 20000 nM.
Regarding `CC[C@H](C)[C@H](NC(=O)[C@@H]1CCCN1C(=O)[C@H](CCC(=O)O)NC(=O)[C@H](CC(C)C)NC(=O)[C@@H](N)CS)C(=O)N[C@@H](CCC(=O)O)C(=O)NCC(=O)N[C@@H](CCCCN)C(=O)N[C@H](C(=O)N[C@H](C(=O)N[C@@H](CCC(N)=O)C(=O)N[C@@H](Cc1ccc(O)cc1)C(=O)N[C@@H](CCC(=O)O)C(=O)N[C@@H](CC(N)=O)C(=O)N[C@@H](CC(C)C)C(=O)O)C(C)C)C(C)C` [Envelope 121-135], the IC50 at DRB1*0301 is 2970 nM; at DRB1*0401 (setting [6]), greater than 20000 nM; at DRB1*0404, 6.15 µM; at DRB1*0405, 7.14 µM; against DRB1*0701 it was 4070 nM; at DRB1*0802 it was 2.75 µM. The IC50 on DRB1*0901 is 3830 nM; against DRB1*1101, 7880 nM; against DRB1*1302, 1280 nM; on DRB1*1501, 404 nM; on DRB3*0101 (setting [4]), greater than 20000 nM.
As for `CC(C)C[C@H](N)C(=O)N1CCC[C@H]1C(=O)N[C@@H](Cc1c[nH]c2ccccc12)C(=O)N[C@H](C(=O)N[C@@H](CO)C(=O)NCC(=O)N[C@@H](C)C(=O)N[C@H](C(=O)N[C@H](C(=O)N[C@@H](CCC(=O)O)C(=O)N[C@H](C(=O)N1CCC[C@H]1C(=O)N[C@H](C(=O)N[C@@H](Cc1c[nH]c2ccccc12)C(=O)N[C@@H](CC(N)=O)C(=O)O)[C@@H](C)O)[C@@H](C)O)[C@@H](C)O)[C@@H](C)O)[C@@H](C)O`, the IC50 at DRB1*0101 was 3.06 µM; at DRB1*0301 (read-out: Binding Affinity (nM) DRB1*0301) it was greater than 20000 nM; against DRB1*0401, 1290 nM; on DRB1*0404, 6.21 µM; against DRB1*0405 it was 2.85 µM; at DRB1*0701, 12200 nM. The IC50 against DRB1*0802 is 5.75 µM; at DRB1*0901, 3610 nM; at DRB1*1101 (setting [5]), greater than 20000 nM; on DRB1*1302 (read-out: Binding Affinity (nM) DRB1*1302), greater than 20000 nM; at DRB1*1501, 3820 nM; at DRB3*0101 (setting [4]) it was greater than 20000 nM. Further, on DRB5*0101, the IC50 is greater than 20000 nM.
Consider `CC[C@H](C)[C@H](NC(=O)[C@H](CCCCN)NC(=O)[C@H](CCCCN)NC(=O)[C@H](CCC(=O)O)NC(=O)[C@H](CC(C)C)NC(=O)[C@@H]1CCCN1C(=O)[C@H](Cc1c[nH]cn1)NC(=O)[C@@H]1CCCN1)C(=O)N[C@H](C(=O)N[C@@H](CCC(N)=O)C(=O)N[C@@H](Cc1c[nH]c2ccccc12)C(=O)N[C@@H](CC(C)C)C(=O)N[C@@H](CCC(=O)O)C(=O)N[C@H](C(=O)N[C@@H](CCCCN)C(=O)NCC(=O)N[C@H](C(=O)O)C(C)C)[C@@H](C)O)[C@@H](C)O` [NS5 636-652], for which the IC50 was 1.44 µM on DRB1*0101; 8480 nM against DRB1*0301; greater than 20000 nM at DRB1*0401 (setting [6]); 17 µM at DRB1*0404; 11.3 µM on DRB1*0405; 352 nM on DRB1*0701. Besides, the IC50 was 4.75 µM at DRB1*0802; 9880 nM on DRB1*0901 (competitive inhibition of radiolabeled standard peptide, DRB1*0901, read-out: Binding Affinity (nM) DRB1*0901); 1070 nM on DRB1*1101; greater than 20000 nM at DRB1*1302 (competitive inhibition of radiolabeled standard peptide, DRB1*1302, read-out: Binding Affinity (nM) DRB1*1302); 453 nM on DRB1*1501; greater than 20000 nM on DRB3*0101 (setting [4]). The IC50 at DRB5*0101 was greater than 20000 nM.
With `CC[C@H](C)[C@H](NC(=O)[C@H](CO)NC(=O)[C@@H]1CCCN1C(=O)[C@@H](NC(=O)[C@H](Cc1ccccc1)NC(=O)[C@H](Cc1c[nH]c2ccccc12)NC(=O)[C@@H](NC(=O)[C@@H](NC(=O)[C@H](CCCCN)NC(=O)CN)[C@@H](C)O)C(C)C)C(C)C)C(=O)N[C@@H](CCCCN)C(=O)N[C@@H](C)C(=O)NCC(=O)N[C@@H](CC(N)=O)C(=O)N[C@@H](CC(=O)O)C(=O)O` [NS3 357-371], the IC50 against DRB1*0101 was 0.016 µM; at DRB1*0301, 436 nM; against DRB1*0401 it was 41 nM; against DRB1*0901 it was 100 nM; against DRB1*1101 it was 38 nM; against DRB1*1501, 16 nM. For the same compound, the IC50 at DRB3*0101 amounted to 711 nM; against DRB4*0101, 759 nM.
